Patent US8324197B2, “Transplatinum complexes with N2O2 donor sets as cytotoxic and antitumor agents” (Virginia Commonwealth University, priority 2005, dated 2012)

Experiments:
[1] = Hydrolysis (first aquation step) followed by HPLC, Example 5; type: physicochemical; settings: nanopure water
Procedure: For hydrolysis studies, […] complex was dissolved in 1 mL of nanopure water. The pH values of the samples were controlled in regular intervals and readjusted if necessary by addition of HNO3 (1 M, 0.1 M, 0.01 M) or NaOH (1 M, 0.1 M, 0.01 M). Aliquots of 20 μL were taken from the bulk solution for HPLC analysis. The overall scheme may be described as follows:
The aquated species were identified by comparison with the hydrolysis profile produced by the corresponding (labile) nitrate compounds. The rate constants for the first aquation step k1 are given in Table 2 and compared with other platinum complexes containing one or two labile ligands. […] In particular, these rates are 2-3 orders of magnitude lower than that of transplatin itself. The rate of aquation tends toward that of carboplatin which in phosphate buffer at 310 K gave a hydrolysis rate of 7.2×10^−7 s^−1 (but in aqueous solution gives a barely measurable rate constant of <5×10^−9 s^−1, which is modulated by the presence of buffer, nucleophile or acid). ^31,32No evidence for formation of Pt(TV) species during hydrolysis is detected under these conditions.^33

[2] = Aqueous solubility of TPA-acetate complexes (sequential addition of water); settings: ambient temperature

Substance	k1, rate constant for the first aquation step [1]	Solubility [2] [µg/mL]
trans-[diacetato(ammine)(quinoline)platinum(II)] [trans-[Pt(OAc)2(NH3)(quin)]]	(3.7 ± 0.1) × 10^−7 s^−1	1600
trans-[diacetatobis(pyridine)platinum(II)] [trans-[Pt(OAc)2(py)2]]	(3.2 ± 0.3) × 10^−7 s^−1	
